PubChem BioAssay AID652126 (The Scripps Research Institute Molecular Screening Center, 2013)
This is a selection; strong and weak results do not stand in their true shares. The source made the active and inactive calls.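 How the source made its calls: active means activation above the mean over all tested compounds plus 3 SD (cut at about 0.9% in these data); inactive means the rest.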

What follows are compounds tested on Nuclear hormone receptor DAF-12 (Strongyloides stercoralis) (assay: S. stercoralis DAF-12 nuclear receptor activators, primary screen, cell-based, luminescence, HEK293, GRIP1 co-expression, lit1-tk-luc (AID 652126;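 further: 0% = DMSO-only wells and 100% = 3 µM delta7-dafachronic acid wells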)). Conditions: HEK293 ssDAF-12/GRIP1 lit1-tk-luc reporter, at 6.8 µM, active compounds read high, % of 3 µM dafachronic acid response.

Row | Structure (SMILES) | activation
1 | O=P(Nc1nc2ccccc2s1)(c1ccccc1)c1ccccc1 | inactive: 0.16%
2 | O=P(Nc1nccs1)(c1ccccc1)c1ccccc1 | inactive: -1.25%
3 | CC(C)C(=O)NC(Sc1ccccc1)C(Cl)(Cl)Cl (stereo not given) | inactive: -0.88%
4 | c1nnnn1CCn1cnnn1 | inactive: -1.33%
5 | COC(=O)C1(C)COP(=O)(NCc2ccccc2)OC1 (stereo not given) | inactive: -0.05%
6 | N#C/C(=C\c1ccc(N(CCBr)CCBr)cc1)C(N)=O | inactive: -1.19%
7 | CC(=O)c1ccc(N2CC2c2ccncc2)cc1 (stereo not given) | inactive: -0.37%
8 | C[C@@H]1C=CCP(=O)(Oc2ccccc2)O1 (stereo not given in full) | inactive: -1.09%
9 | C[C@H]1OP(=O)(Oc2ccccc2)C[C@@H]2O[C@@H]21 (stereo not given in full) | inactive: -1.13%
10 | Cc1ccccc1CN(C)C(=O)COC(=O)C(O)(c1ccccc1)c1ccccc1 | inactive: -0.11%
11 | CC(=O)Nc1ccc(Oc2c([N+](=O)[O-])cc([N+](=O)[O-])cc2[N+](=O)[O-])cc1 | inactive: -1.84%
12 | CC(=O)Nc1ccc([As](=O)(O)O)c(O)c1 | inactive: -1.36%
13 | CCOc1ccc(C2=NCC(CBr)S2)cc1 (stereo not given) | inactive: -0.41%
14 | O=P1(Nc2nc3ccc(Cl)cc3s2)COc2ccccc2O1 (stereo not given) | inactive: -0.43%
15 | CCc1cc(O)c([N+](=O)[O-])c(C)c1[N+](=O)[O-] | inactive: -0.2%
16 | CC(C)(C)C(=O)NC(Sc1ccccc1)C(Cl)(Cl)Cl (stereo not given) | inactive: -1.72%
17 | Cc1ccc(OP(=O)(Nc2ccccn2)Oc2ccc(C)cc2)cc1 | inactive: -0.96%
18 | CC(=O)NC(SC(=S)N(CC(C)C)CC(C)C)C(Cl)(Cl)Cl (stereo not given) | inactive: -1%
19 | COC(=O)c1cc2c(s1)N=C(c1ccccc1)N(C)P2(=O)N1CCOCC1 (stereo not given) | inactive: -1.48%
20 | CCC(=O)N1C2C3N(C(=O)CC)C1C1N(C(=O)CC)C(C(N1C(=O)CC)N3C(=O)CC)N2C(=O)CC | inactive: -0.11%
21 | O=C(OC1CN2CCC1CC2)c1ccccc1 (stereo not given) | inactive: -1.4%
22 | CN(C)C(=O)Oc1noc2ccccc12 | inactive: -1.52%
23 | O=c1c2cc([N+](=O)[O-])ccc2[nH]c2c([N+](=O)[O-])cc([N+](=O)[O-])cc12 | inactive: -1.34%
24 | Cc1ccccc1OP(=O)(Nc1ccccn1)Oc1ccccc1C | inactive: -1.6%
25 | CC(NC(=O)COC(=O)C(O)(c1ccccc1)c1ccccc1)c1ccccc1 (stereo not given) | inactive: -1.32%

Row | Structure (SMILES) | activation
26 | O=C(NC1CCS(=O)(=O)C1)NP(=S)(Oc1ccccc1)Oc1ccccc1 (stereo not given) | inactive: -1.02%
27 | CCNC(=S)/N=C(\N)N[N+](=O)[O-] | inactive: -1.16%
28 | Cc1ccc(NP(=O)(Oc2cccc(C)c2)Oc2cccc(C)c2)nc1 | inactive: -1.86%
29 | c1ccc(-c2nn[nH]n2)c(-c2nn[nH]n2)c1 | inactive: -0.42%
30 | O=P1(N(CCCl)CCCl)OCCC2CCCCN21 (stereo not given) | inactive: -0.52%
31 | CCN(N=Nc1nonc1N)c1nonc1N | inactive: -1.56%
32 | CN(C(=O)Cc1ccccc1)C1CC[C@@]2(CCCO2)C[C@@H]1N1CCCC1 (stereo not given in full) | inactive: -1.1%
33 | Nc1cccc2ccc([As](=O)(O)O)cc12 | inactive: -1.26%
34 | CCCC1OP(N)(=O)OCC1CC (stereo not given) | inactive: -0.7%
35 | O=C(O)c1ccccc1[As](=O)(O)O | inactive: -0.22%
36 | CC(=O)Nc1ccc([As](=O)(O)O)cc1 | inactive: -1.23%
37 | CN(C)P(=O)(N(C)C)n1c(Nc2ccccc2)nnc1-c1ccccc1 | inactive: -0.77%
38 | O=P(Nc1nc2ccc(Cl)cc2s1)(c1ccccc1)c1ccccc1 | inactive: -1.08%
39 | CN(C(=O)Cc1ccc(Cl)c(Cl)c1)[C@H]1CCCC[C@@H]1N1CCCC1 | inactive: -1.09%
40 | Cc1ccc(NP(=O)(Oc2ccccc2F)Oc2ccccc2F)nc1 | inactive: -0.34%
41 | CCOP(=O)(Nc1ccccc1)OCC | inactive: -1.08%
42 | Cc1cc(SC(NC(=O)c2ccc(F)cc2)C(Cl)(Cl)Cl)ncn1 (stereo not given) | inactive: -1.48%
43 | CCn1c(=O)n(C2CCN(CC3CCCCCCC3)C[C@H]2CO)c2ccccc21 (stereo not given in full) | inactive: -1.55%
44 | CC(C)CC(=O)NC(Sc1ccc(Cl)cc1)C(Cl)(Cl)Cl (stereo not given) | inactive: -0.38%
45 | Nc1cc(N)c2nonc2c1[N+](=O)[O-] | inactive: -1.91%
46 | O=C(NC(Sc1ccncn1)C(Cl)(Cl)Cl)c1ccccc1 (stereo not given) | inactive: -0.93%
47 | Oc1ccccc1CNc1ccccn1 | inactive: -1.31%
48 | NC(=O)c1cc([N+](=O)[O-])cc([N+](=O)[O-])c1N | inactive: -1.89%
49 | Cc1ccc(N/C(=N/P(=O)(N2CCOCC2)N2CCOCC2)N2CCOCC2)cc1 | inactive: -0.66%
50 | CN(C(=O)Cc1ccc(Cl)c(Cl)c1)[C@H]1CCCC[C@H]1N1CCCC1 | inactive: -0.71%

Row | Structure (SMILES) | activation
51 | Cc1ccc(OP(=O)(Nc2nccs2)Oc2ccc(C)cc2)cc1 | inactive: -0.79%
52 | COc1ccccc1OP(=O)(Nc1ccc(C)cn1)Oc1ccccc1OC | inactive: -0.71%
53 | Clc1ccc(Cl)c(NC2=NCC(CBr)S2)c1 (stereo not given) | inactive: -1.39%
54 | CN1CCCC(OC(=O)C(c2ccccc2)c2ccccc2)C1 (stereo not given) | inactive: -0.86%
55 | C[N+]1=C2C=CC=CC=C2SC12C([N+](=O)[O-])=CC([N+](=O)[O-])=C[C-]2[N+](=O)[O-] (stereo not given) | inactive: -3.1%
56 | Nc1ccc([As](=O)(O)c2ccc(N)cc2)cc1 | inactive: 0.05%
57 | CCN(/C(=N/P(=O)(N1CCOCC1)N1CCOCC1)N1CCOCC1)c1ccc(OC)cc1 | inactive: 0.26%
58 | CN(C)C(=O)OCCc1n(C)cc[n+]1C | inactive: -0.99%
59 | CC(C)=N/N=C(\N)N[N+](=O)[O-] | inactive: -0.82%
60 | CC(C)c1nc(Nc2ccccc2)n(P(=O)(N(C)C)N(C)C)n1 | inactive: -0.86%
61 | c1cc(-c2nn[nH]n2)ccc1-c1nn[nH]n1 | inactive: -0.5%
62 | CC1CCN(C(=O)Oc2c(Cl)cc(Cl)c3cccnc23)CC1 | inactive: -0.72%
63 | COc1ccc(C2=NCC(CBr)S2)cc1 (stereo not given) | inactive: -0.08%
64 | CC(=O)N1C2C3N(C(C)=O)C1C1N(C(C)=O)C(C(N1C(C)=O)N3C(C)=O)N2C(C)=O | inactive: -0.77%
65 | O=[N+]([O-])c1cccc2n[nH]nc12 | inactive: -0.31%
66 | O=[N+]([O-])c1cc([N+](=O)[O-])c(CCNc2ccccc2)c([N+](=O)[O-])c1 | inactive: -1.69%
67 | CCc1nc2c(n1)c1c(non1O)c1c2no[n+]1[O-] | inactive: -1.6%
68 | Cc1ccc(NP(=O)(Oc2ccccc2)Oc2ccccc2)nc1 | inactive: -1.74%
69 | CC(C)(C)C(=O)NC(Sc1ccncn1)C(Cl)(Cl)Cl (stereo not given) | inactive: -0.71%
70 | O=[N+]([O-])c1ncn(CCn2ncnc2[N+](=O)[O-])n1 | inactive: -1.32%
71 | O=[N+]([O-])c1cccc(NC2=NCC(CBr)S2)c1 (stereo not given) | inactive: -1.3%
72 | COC(=O)C1(C)COP(=O)(Nc2ccccc2)OC1 (stereo not given) | inactive: -0.35%
73 | O=C(O)CNc1ccc([As](=O)(O)O)cc1 | inactive: -0.78%
74 | O=P1(N(CCCl)CCCl)OCCCS1 (stereo not given) | inactive: -1.03%
75 | O=C(Nc1cc([As](=O)(O)O)ccc1O)c1ccccc1 | inactive: -0.51%
